Measured values as given in ChEMBL document CHEMBL1135928, “Binding mode analysis of 3-(4-benzoyl-1-methyl-1H-2-pyrrolyl)-N-hydroxy-2-propenamide: a new synthetic histone deacetylase inhibitor inducing histone hyperacetylation, growth inhibition, and terminal cell differentiation” (J Med Chem, 2002).

Protein sequences, listed by entry. Tags and fused reporters are not part of them.
UniProt O09106, whole entry: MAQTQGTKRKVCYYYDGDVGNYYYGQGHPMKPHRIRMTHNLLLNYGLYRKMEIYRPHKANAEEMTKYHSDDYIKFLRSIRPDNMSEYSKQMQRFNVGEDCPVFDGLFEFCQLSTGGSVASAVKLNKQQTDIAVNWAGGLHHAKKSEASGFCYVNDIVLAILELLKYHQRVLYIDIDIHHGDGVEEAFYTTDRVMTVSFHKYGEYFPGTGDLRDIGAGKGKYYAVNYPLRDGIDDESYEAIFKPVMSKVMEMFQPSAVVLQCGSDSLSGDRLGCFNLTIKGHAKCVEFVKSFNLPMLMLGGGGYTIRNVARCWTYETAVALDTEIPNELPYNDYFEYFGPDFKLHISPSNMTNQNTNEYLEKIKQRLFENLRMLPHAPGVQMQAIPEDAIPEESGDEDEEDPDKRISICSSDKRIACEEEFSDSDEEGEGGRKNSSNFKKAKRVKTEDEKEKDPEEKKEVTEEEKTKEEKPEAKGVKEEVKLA

Molecular target: Histone deacetylase 1 (Mus musculus, UniProt O09106)
Test: Binding affinity towards HDAC1 (Histone deacetylase 1) in mouse A20 cells, expressed as binding constant (pKi)
Assay type: cell-based

Ki: 1.07 nM
Compound: CC(/C=C/C(=O)NO)=C\[C@@H](C)C(=O)c1ccc(N(C)C)cc1 [TRICHOSTATIN]
